Where two headings read alike, the source gives them in different places.
Tests used:
[1] = molecular target: T1, 4-hydroxyphenyl pyruvate dioxygenase (HPPD) (Rattus norvegicus, UniProt P32755); experiment: Determination of 4-hydroxyphenyl pyruvate dioxygenase (HPPD) enzyme activity in vitro (rate of oxygen consumption, rat liver cytosol); assay type: biochemical
T1 construct: rat liver cytosol (2.7 mg of protein/ml incubate); from tissue; host or cells: rat liver (cytosol, 110,000 g supernatant)
Protocol: The principle of the assay is that 4-hydroxyphenyl pyruvate dioxygenase (HPPD), an enzyme that participates in the catabolism of tyrosine, catalyses the oxidative decarboxylation and rearrangement of 4-hydroxyphenylpyruvate (HPPA) to homogentisate, with the incorporation of both atoms of molecular oxygen into the product.
Rat liver was homogenised in buffer of the following composition; 0.25 M Sucrose, 5.4 mM EDTA, 20 mM Tris base, pH 7.4, (25% homogenate) using 6 passes of a Potter type homogeniser. The homogenate was then centrifuged at 1,800 g for 10 minutes at 4° C., the pellet was discarded and the supernatant centrifuged at 17,000 g for a further 15 minutes at 4° C. The pellet was then discarded and the supernatant centrifuged at 110,000 g for 80 minutes at 4° C. The supernatant containing the HPPD enzyme from this 110,000 g spin was collected and stored frozen at −70° C. and used in the assays of the test compounds (see below).
Prior to the start of the enzymatic reaction by the addition of HPPA substrate, the enzyme and test compound (inhibitor) were incubated together for 3 minutes.
In cases where the effects of several concentrations of an inhibitor were investigated, an IC50 value (the half-maximal inhibitory concentration of test compound) was determined by plotting the data using a non-linear regression curve-fitting program using a GraphPad Prism™ software package.
Data are expressed as mean values from two experiments except where indicated. Where appropriate the values are expressed as the mean±standard deviation.

Protein sequences, listed by entry. Tags and fused reporters are not part of them. Lines headed by an entry give the natural chain unless they say otherwise; changes in a name come on top.
UniProt P32755: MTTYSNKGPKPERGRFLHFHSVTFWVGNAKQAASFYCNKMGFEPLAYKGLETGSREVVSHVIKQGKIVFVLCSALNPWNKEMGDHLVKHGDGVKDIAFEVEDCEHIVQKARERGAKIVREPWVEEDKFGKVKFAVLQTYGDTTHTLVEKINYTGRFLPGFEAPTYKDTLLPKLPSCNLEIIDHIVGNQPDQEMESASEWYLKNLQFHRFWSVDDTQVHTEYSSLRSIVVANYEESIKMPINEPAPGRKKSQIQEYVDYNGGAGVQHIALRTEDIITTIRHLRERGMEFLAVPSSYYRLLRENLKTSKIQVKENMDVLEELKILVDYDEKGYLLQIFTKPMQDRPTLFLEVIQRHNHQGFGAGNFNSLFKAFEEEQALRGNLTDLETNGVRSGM

plasma tyrosine = conditions: AMPT rats, sampled after behavioral assessment
Protocol: The effect was compared with appropriate vehicle control groups (oral vehicle was 1% carboxymethylcellulose; CMC) and a group that received a 150 mg/kg i.p. dose of L-dopa.

IC50 [1]: 86 ± 2.4 nM | inhibition at 0.1 µM ([1]; read-out: % Inhibition at 100 nM): 64 ± 1.6% | inhibition at 0.3 µM ([1]; read-out: % inhibition at 300 nM): 94 ± 0.9%
Structure (SMILES): O=C1CCCC(O)=C1C(=O)c1ccc(C(F)(F)F)cc1[N+](=O)[O-] [Compound 2, 2-(2-Nitro-4-Trifluoromethylbenzoyl)-1,3-Cyclohexanedione]
plasma tyrosine concentration (mean) (plasma tyrosine; 2 mg/kg oral 4 hours post AMPT dose): 345 ± 45 nmol/mL | plasma tyrosine concentration (mean) (plasma tyrosine; 2 mg/kg oral 16 hours prior to AMPT): 2205 ± 238 nmol/mL

Source: patent publication US20090326072A1, “USE OF 2-(2-NITRO-4-TRIFLUOROMETHYLBENZOYL)-l,3- CYCLOHEXANEDIONE IN THE TREATMENT OF PARKINSON'S DISEASE” (priority 2005, published 2009)
